Test system: MCF7
Experiment: Single drug treatments, viability/toxicity
Format: cell-based
Settings: first round, doses up to 25 µM

Structure (SMILES): OCCN(CCO)c1nc(N2CCCCC2)c2nc(N(CCO)CCO)nc(N3CCCCC3)c2n1 [dipyridamole]
- toxicity towards MCF7: showed toxicity towards MCF7

Source: publication PMC12134935, “Scientific hypothesis generation by large language models: laboratory validation in breast cancer treatment” (Journal of the Royal Society Interface, 2025)
